## Antibody variant affinities, Ab-14 light chain, assay B

Reference: Li et al. 2023, doi:10.1038/s41467-023-39022-2. File: FLAb, binding data.

Target: peptide PDVDLGDISGINAS, taken from heptad repeat 2 (HR2) of SARS-CoV-2 spike.

Parent scFv Ab-14: VH joined to VL by the linker GGGGSGGGGSGGGGS. Changes lie in the light chain CDRs alone.
VH: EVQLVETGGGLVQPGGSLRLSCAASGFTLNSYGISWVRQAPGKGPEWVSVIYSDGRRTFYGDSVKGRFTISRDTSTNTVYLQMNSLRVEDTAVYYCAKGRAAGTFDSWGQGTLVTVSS
VL: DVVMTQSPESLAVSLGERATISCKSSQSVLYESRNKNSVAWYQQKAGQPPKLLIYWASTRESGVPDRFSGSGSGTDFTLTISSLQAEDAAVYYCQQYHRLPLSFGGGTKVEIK

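The starting antibody came from a phage panning campaign against this peptide. The variants were designed computationally from a first round of random CDR variants and then made and measured. Group labels follow the data file (Ctrl: baseline library sampled from a position-specific scoring matrix, with some repeated check sequences; En: ensemble of fine-tuned language models; GP: Gaussian process model; HC: hill climbing; Gen: genetic algorithm; Gibbs: Gibbs sampling; a sequence that several methods proposed may carry one label only). In AlphaSeq, yeast of one mating type display the scFv and yeast of the other type display the target. Pairs that bind mate more often; barcode pairs of the diploids are counted by sequencing. A regression on co-assayed BCL2-family reference pairs converts the normalised counts of each replicate to an apparent Kd. Each pool was mated in six replicate cultures.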

Each variant is given by its three light chain CDRs, as the data file delimits them; those of the parent are KSSQSVLYESRNKNSVA, WASTRES, QQYHRLPLS.
Affinities are written as log10 Kd with Kd in nM; a lower number is a better binder.
The mean shown is taken over the replicates in which the pair was detected.
"no signal" marks a missing value. The strain was present, yet no cells mated with the target were sequenced in any replicate, which points to weak or no binding.

| mean, log10 nM | seen in | CDR-L1 | CDR-L2 | CDR-L3 | group |
|---|---|---|---|---|---|
| 1.48 | 6/6 | RIQDHMAVGTMSHSSIA | EEATVMD | QQYSRLPLA | En_Gibbs |
| -0.43 | 6/6 | KYSQSWLYESRNKNSVA | GASTRES | QQYHRLPLS | GP_HC |
| 0.00 | 6/6 | KLQQSVLYESRAKNSVA | NASTRES | QQYHRLPLS | GP_Gen |
| 0.14 | 6/6 | KLSQSVLYESRMKNSVA | EASTRLS | QQYHRLPLS | GP_Gen |
| 1.05 | 6/6 | KLSQVTNSEHRNKNSIA | EMVTREK | QQYDRLPLF | En_HC |
| 0.72 | 6/6 | KLYTSTMLESHNKNSIA | DLSTRGN | QQYHRLPLS | En_HC |
| 1.00 | 6/6 | RLLDWAYNLTAKERNIA | DMDIRGA | QQYSHLPLA | En_Gibbs |
| -0.43 | 6/6 | KVSQSHLYEERNANNVA | NASDRES | QQYHRLPLS | GP_Gibbs |
| 0.10 | 6/6 | KLSQSQLYESRNKNSVA | NASTRLS | QQYHRLPLS | GP_Gen |
| 1.60 | 5/6 | KSSQSVSYEMRNKNSVA | GASTRES | QQYARLPLS | Ctrl |
| -0.43 | 6/6 | KLRQSQLYESRNKNSVA | NASTRES | QQYHRLPLS | GP_Gen |
| -0.06 | 6/6 | KVSQSVWYESRNKNSVA | NASQRES | QQYHRLPLS | GP_Gen |
| 0.84 | 6/6 | KLMGSVLYESRWKNAVA | GASTRES | QQYHRLPLS | GP_Gibbs |
| 0.01 | 6/6 | HLSDTVMQGSYYRNSVA | QESTRAE | QQYHRLPLS | En_HC |
| 2.82 | 3/6 | KSHQSVLYESRNKNSVA | WASTRES | QQYHRLPLS | Ctrl |
| 2.00 | 3/6 | KDSQSVLYESENKNSVA | WASTRES | QQYHRLPLS | Ctrl |
| 0.41 | 6/6 | KSDQSVLYESDNKNSVA | GASTRMS | QQYHRLPLS | Ctrl |
| 0.13 | 6/6 | KLYQSVGTMSHNKQSIA | DMDRRED | QQYHRLPLS | En_HC |
| 0.64 | 6/6 | KLIQMTGIESHNKNSLA | DANRRES | QQYHRLPLS | En_HC |
| no signal | 0/6 | KSSQSVLYEGRNVNSVA | WDSTRES | QQYHRIPLS | Ctrl |
| 0.35 | 6/6 | KVEQGVMMGSRNKNSVA | HASVREQ | QQYHRLPLS | GP_Gibbs |
| 0.17 | 6/6 | KLSQSVLYESRNKNSVA | WASTRES | QQYHRLPFS | Ctrl |
| 1.22 | 6/6 | KSSISHLGESRNKNSVA | EASTRES | QQYHRLPLS | GP_HC |
| 1.39 | 6/6 | HLELEYMQMMKDHNSIA | DTESKTD | QQYFRLPIS | En_Gibbs |
| 1.53 | 6/6 | TITMFMDNAYHNRNNVA | DTSTLGS | QSYDRLPLS | En_Gen |
| 1.88 | 4/6 | KSSQSVLYESHNKNSVA | AASTRES | QQYHRLPIS | Ctrl |
| 0.59 | 6/6 | KSQQEWEGQSRNKNSVA | HASKRES | QQYHRLPLS | GP_Gibbs |
| 2.14 | 5/6 | KSSQSVLYQSRNKNSVA | QASTRES | QQYHRLPLS | Ctrl |
| 1.20 | 6/6 | TLMQVGGYEMNAHDSIA | DLRTREN | QQYHRLPLS | En_HC |
| 0.03 | 6/6 | KLEPSEEEESRNKNSVA | SASTRES | QDYHRLPLS | GP_Gibbs |
| 0.20 | 6/6 | KLSQSDLYESRMKNSVA | NASTRMS | QQYHRLPLS | GP_Gen |
| 0.53 | 6/6 | KMSQSVWYESRNKNSVA | EASTRES | QQYHRLPLS | GP_Gen |
| -0.18 | 6/6 | KLMQSVLYESRNKNSIA | HASLRED | QQYHRLPLS | GP_HC |
| -0.36 | 6/6 | KLQQSFLYESRNKNSVA | NASQRLS | QQYHRLPLS | GP_Gen |
| 2.63 | 5/6 | MISDMGLHDSRISNSVA | NNSTREA | QQYDRLPLS | En_HC |
| -0.16 | 6/6 | KVSQKDPMGSRNKNSVA | HASVRED | QQYHRLPLS | GP_Gibbs |
| 0.58 | 6/6 | KLSILGLHQSIDKKSIA | ERSTREN | QQYHRLPLS | En_HC |
| 0.15 | 6/6 | KWSFGVMGESRNKNSVA | DASTRES | QQYERLPLS | GP_Gibbs |
| 0.44 | 6/6 | KIGMTLNQLMQKKNNVA | DLVTREE | QQYFRLPLS | En_Gen |
| 1.18 | 6/6 | KSSQSVLEESRNKNSVA | EASQRES | QGYHRLPLS | Ctrl |
| 0.91 | 6/6 | VFQQQWDGHTDTNNSVA | NVDHKME | QQYYRLPLL | En_Gibbs |
| -0.10 | 6/6 | KYSQSQGYESRNQWSVA | NASTRES | QQYHRLPLS | GP_Gibbs |
| 0.19 | 6/6 | KLSQSVWYESRLKNSVA | EASTREY | QQYHRLPLA | GP_Gibbs |
| -0.42 | 6/6 | KYSQSWIYESRNKNSVA | GASTRES | QQYHRLPLS | GP_HC |
| 2.44 | 4/6 | MLSMVTEGMRRKHNSVA | DNSTKES | QQYDRLPLS | En_Gen |
| no signal | 0/6 | KSSQSVLYESRNKNSVA | WASTVES | QQYIRLPLS | Ctrl |
| -0.15 | 6/6 | KFSQSVLYEDRTWNSVA | NASTRES | QQYHRLPLS | GP_HC |
| -0.37 | 6/6 | KLSQSVLYESENKNSVA | QASTRES | QQYHRLPLS | Ctrl |
| 2.33 | 6/6 | HVPNYPENFTSAKQNIA | DQSARTS | QQYDRLPLA | En_Gibbs |
| 0.18 | 6/6 | KLSQSDEYESRQKNSVA | NASTRMQ | QQYHRLPLL | GP_Gibbs |
| 1.64 | 6/6 | MMSMGSLGGMRAKNNVA | QEETRES | QQYHRLPLI | En_HC |
| 0.37 | 6/6 | KISGMYGKESKNKNSVA | EMVNRES | QQYDRLPLS | En_HC |
| 1.75 | 6/6 | KSSQSVLYEDRNKNSVA | KASTRES | QQYHRLPIS | Ctrl |
| 0.18 | 6/6 | KLSQSWEYESRNSNSVA | NASTRET | QQYHRLPLE | GP_Gibbs |
| no signal | 0/6 | KSSYSVDTESQDKNSVA | NASTRES | KQYHRLMLS | Ctrl |
| -0.09 | 6/6 | KLSQSMEYESRNKNSVA | QASTREH | QQYHRLPLM | GP_Gibbs |
| 0.18 | 6/6 | HLSDTVMQGSYYGNSVA | QESTRAD | QQYHRLPLS | En_HC |
| -0.37 | 6/6 | QVTNISDPYGRNRNNIA | NTSERMH | QQYQMLPLA | En_Gibbs |
| 0.18 | 6/6 | KLYQSVLYESRNKNSVA | NASTRED | QQYHRLPLS | GP_Gen |
| 0.75 | 6/6 | TLTQSVGMESHKKNSVA | DLSTRGS | QQYHRLPLS | En_HC |
| 0.98 | 6/6 | MFSQSVMYGSFMRNSVA | QTSTRED | QQYDRLPLS | En_HC |
| 0.58 | 6/6 | TISTSAGYESINKNSVA | ELSTRGS | QQYERLPLS | En_HC |
| 0.23 | 6/6 | KVDMGELPNGFNRSSIA | QAEVRAP | QQYWQLPLC | En_Gibbs |
| 0.86 | 6/6 | KLNDDFQVNERNNGSVA | DAIISEA | QQYARLPLI | En_Gibbs |
| -0.18 | 6/6 | KLSQSDGYQARNSNSVA | HASQRED | QQYHRLPLS | GP_Gibbs |
| -0.05 | 6/6 | KLYQSVLYESRNKNSVA | NASTRCS | QQYHRLPLS | GP_Gen |
| 1.18 | 6/6 | KLSGIMRVESKVSNSIA | EMTTRGE | QQYDRLPLS | En_Gen |
| 0.44 | 6/6 | KISSLTLYESVNKNNVA | EMSTRPS | QSYHRLPLS | En_HC |

Picked from the list: the 6 lowest averages where every replicate gave a value.

| CDR-L1 | CDR-L2 | CDR-L3 | group | mean, log10 nM | seen in |
|---|---|---|---|---|---|
| KLRQSQLYESRNKNSVA | NASTRES | QQYHRLPLS | GP_Gen | -0.43 | 6/6 |
| KYSQSWLYESRNKNSVA | GASTRES | QQYHRLPLS | GP_HC | -0.43 | 6/6 |
| KVSQSHLYEERNANNVA | NASDRES | QQYHRLPLS | GP_Gibbs | -0.43 | 6/6 |
| KYSQSWIYESRNKNSVA | GASTRES | QQYHRLPLS | GP_HC | -0.42 | 6/6 |
| QVTNISDPYGRNRNNIA | NTSERMH | QQYQMLPLA | En_Gibbs | -0.37 | 6/6 |
| KLSQSVLYESENKNSVA | QASTRES | QQYHRLPLS | Ctrl | -0.37 | 6/6 |

In the paper, a design with two or fewer of six values counts as a poor binder.
Three control strains display no target. For all light chain designs, 4% of the pairings with them gave a signal, with a median of 2.64 and one signal in twenty below 1.59, so weak values seen in few replicates may be background.
Values of this round are not directly comparable with the first-round values of the same sequences.